{
  "source": "patent US20240327401A1",
  "about": "“FUSED RING COMPOUND, PHARMACEUTICAL COMPOSITION, AND APPLICATION THEREOF” (EVOPOINT BIOSCIENCES CO., LTD., priority 2021, published 2024)",
  "key": {"[1]": {"system": "ERK phosphorylation in DLD-1 cells", "experiment": "In-cell Western blot assay for ERK phosphorylation in DLD-1 cells", "conditions": "read-out: DLD-1 p-ERK IC50, p-ERK signal corrected using DMSO and BI-3406, four-parameter fit", "method": "Efficacy Example 1: In-cell Western Blot Assay for ERK Phosphorylation in DLD-1 Cells\nDLD-1 cells (ATCC, CCL-221) were thawed and cultured in a culture medium containing RPMI1640 (Gibco, A10491-01), 10% fetal bovine serum (FBS) (Transgene, FS201-02) and 1% antibiotic P/S (Gibco, 15140-122) for 3 days until the cell viability was good. The cells were inoculated into a 384-well plate and incubated at 37° C. with 5% CO2 overnight. A test compound, a positive control compound, and a negative control were added. The compound was at concentrations of 10000 nM to 1.52 nM (3-fold dilution) and […], for a total of 10 concentrations. The mixture was well mixed and incubated at 37° C. with 5% CO2. The cells were washed twice with PBS (Solarbio, P1010), and then a blocking buffer was added. After 1 h of blocking at room temperature, a primary antibody mixture (phospho-p44/42 MAPK (T202/Y204) Rabbit mAb (CST, […]), GAPDH (D4C6R) Mouse mAb) (CST, 97166S) was added, followed by overnight incubation at 4° C. […] The 384-well plate was reversed and centrifuged at 1000 rpm for 1 min, and read on an Odyssey CLx fluorescence imaging system (LI-COR) to obtain fluorescence signal values, which were corrected using DMSO and BI-3406. […]\nThe IC50 values of the compounds were calculated using a four-parameter fitting algorithm, specifically as follows: […]"}, "[2]": {"target": "SOS1/KRAS G12C protein binding (Homo sapiens, UniProt Q07889)", "experiment": "Inhibition of SOS1/KRAS G12C protein binding (665 nm/615 nm ratio)", "conditions": "read-out: KRAS-SOS1 IC50; 15 nM KRAS G12C (aa 1-169), 2.5 nM His-SOS1 (aa 564-1049); nonlinear regression", "method": "Efficacy Example 2: Evaluation of Inhibition of SOS1/KRAS G12C Protein Binding\nA test compound was dissolved in 100% DMSO to give a solution at a concentration of 10 mM. 10 μL of the solution was taken and 3-fold diluted with 100% DMSO to prepare test compound solutions with concentrations of 10000 nM to […], for a total of 11 concentrations. The compound solutions at different concentrations were then transferred to a 384-well plate at 0.1 μL/well using a sonic droplet device Echo (Labcyte), and 2 replicate wells were set for each concentration.\nA 15 nM KRAS G12C (aa 1-169) protein (Pharmaron Beijing Co., Ltd., 20200707) was transferred to the 384-well reaction plate at 5 μL/well using the sonic droplet device Echo (Labcyte), and then the reaction plate was centrifuged in a centrifuge (Eppendorf, 5810R) at 1000 rpm/min for 1 min. […]\nThe 665 nm/615 nm optical density ratio was read using an Envision multifunctional microplate reader (Perkin Elmer, Envision 2104). […]\nThe IC50 (half maximal inhibitory concentration) values of the compounds were calculated using the following non-linear fitting equation: […]"}},
  "data": [
    {"smiles": "[2H]C([2H])([2H])Oc1c(=O)n(C2(C(F)F)CC2)cc2c(N[C@H](C)c3cccc(C(F)(F)F)c3C)nc(C)nc12", "values": [
      {"measurement": "IC50", "setting": "[1]", "result": 93, "unit": "nM"},
      {"measurement": "IC50", "setting": "[2]", "result": 4.18, "unit": "nM"}
    ]}
  ]
}
